{"source": "paper PMC3988563", "about": "(2014)", "binders": {"B1": {"name": "His-tagged RF3 (class 2 release factor) (natural protein)", "chain": "MTLSPYLQEVAKRRTFAIISHPDAGKTTITEKVLLFGQAIQTAGTVKGRGSNQHAKSDWMEMEKQRGISITTSVMQFPYHDCLVNLLDTPGHEDFSEDTYRTLTAVDCCLMVIDAAKGVEDRTRKLMEVTRLRDTPILTFMNKLDRDIRDPMELLDEVENELKIGCAPITWPIGCGKLFKGVYHLYKDETYLYQSGKGHTIQEVRIVKGLNNPDLDAAVGEDLAQQLRDELELVKGASNEFDKELFLAGEITPVFFGTALGNFGVDHMLDGLVEWAPAPMPRQTDTRTVEASEDKFTGFVFKIQANMDPKHRDRVAFMRVVSGKYEKGMKLRQVRTAKDVVISDALTFMAGDRSHVEEAYPGDILGLHNHGTIQIGDTFTQGEMMKFTGIPNFAPELFRRIRLKDPLKQKQLLKGLVQLSEEGAVQVFRPISNNDLIVGAVGVLQFDVVVARLKSEYNVEAVYESVNVATARWVECADAKKFEEFKRKNESQLALDGGDNLAYIATSMVNLRLAQERYPDVQFHQTREH"}}, "key": {"[1]": {"target": "T1, Ribosome termination complex formed with GAQ-RF1 (E. coli)", "test": "GDPNP"}, "[2]": {"target": "T1, Ribosome termination complex formed …", "test": "no nucleotide (RF3 lowGDP)"}}}
{"binder": "B1", "values": [{"measurement": "Kd", "setting": "[1]", "value": 16, "unit": "nM"}, {"measurement": "Kd", "setting": "[2]", "value": 8, "unit": "nM"}]}
